From article PMC2765192 (Journal of medicinal chemistry, 2009)

By UniProt entry, the sequences of proteins in these tests, tags left out. Residues count along the entry.
UniProt Q14833, 33-912: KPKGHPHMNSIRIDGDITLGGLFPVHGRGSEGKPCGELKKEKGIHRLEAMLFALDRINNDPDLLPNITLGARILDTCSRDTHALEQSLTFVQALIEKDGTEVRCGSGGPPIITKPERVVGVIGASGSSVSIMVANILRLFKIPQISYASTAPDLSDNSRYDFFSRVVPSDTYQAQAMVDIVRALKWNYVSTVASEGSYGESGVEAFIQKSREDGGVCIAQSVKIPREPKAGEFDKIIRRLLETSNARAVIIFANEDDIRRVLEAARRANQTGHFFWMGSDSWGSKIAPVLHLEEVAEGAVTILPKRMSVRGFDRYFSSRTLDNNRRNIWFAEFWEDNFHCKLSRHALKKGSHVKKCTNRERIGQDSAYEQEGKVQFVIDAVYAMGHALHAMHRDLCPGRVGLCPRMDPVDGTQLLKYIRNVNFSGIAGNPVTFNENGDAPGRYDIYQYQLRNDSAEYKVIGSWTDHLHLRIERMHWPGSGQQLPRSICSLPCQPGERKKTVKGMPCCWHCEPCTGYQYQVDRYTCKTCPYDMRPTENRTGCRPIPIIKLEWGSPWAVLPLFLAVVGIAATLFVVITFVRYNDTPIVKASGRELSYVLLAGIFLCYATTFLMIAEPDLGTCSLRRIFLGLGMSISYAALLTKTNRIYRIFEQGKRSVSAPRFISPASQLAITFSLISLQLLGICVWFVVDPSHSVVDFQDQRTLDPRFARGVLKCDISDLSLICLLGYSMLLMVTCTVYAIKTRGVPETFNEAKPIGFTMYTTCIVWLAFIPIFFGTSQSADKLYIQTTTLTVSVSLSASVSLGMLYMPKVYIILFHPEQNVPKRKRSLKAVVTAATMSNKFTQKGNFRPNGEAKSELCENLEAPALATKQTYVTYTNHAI

Biological target: human mGluR4 (Homo sapiens, UniProt Q14833)
Assay: Fold shift of glutamate concentration-response curve, human mGluR4/Gqi5 cells
Conditions: 30 •M compound, representative experiment in triplicate

`COc1cc(NC(=O)c2ccccn2)ccc1Cl` [Compound 9b] was tested, and the “shift of the glutamate concentration-response curve to the left” value was 33 fold.
